Earlier results on one substance are cited in PMC4160250.

Chains of the proteins cited; added tags and fusions are not shown. Residues count along the entry.
UniProt P45974, 654-762: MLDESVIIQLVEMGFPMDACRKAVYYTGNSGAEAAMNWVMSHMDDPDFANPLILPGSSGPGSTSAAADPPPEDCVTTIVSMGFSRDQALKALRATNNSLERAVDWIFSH

What is called Kd is the concentration at which binding is half-saturated.

The target of this data set is USP5 UBA12 (Homo sapiens) (UniProt P45974). The note with it: cited from earlier work.

For the substance Ubiquitin (from UniProt P0CG48), the Kd is 50 µM.
